# The list shows a part of the results, in another mix than the full data. Active and inactive are the calls of the source. Rule as the data show it: active = activation above about 18%; inactive = the rest.
# The chains behind the UniProt entries cited, without tags or fusion partners.
# UniProt P35372, whole entry, looked up: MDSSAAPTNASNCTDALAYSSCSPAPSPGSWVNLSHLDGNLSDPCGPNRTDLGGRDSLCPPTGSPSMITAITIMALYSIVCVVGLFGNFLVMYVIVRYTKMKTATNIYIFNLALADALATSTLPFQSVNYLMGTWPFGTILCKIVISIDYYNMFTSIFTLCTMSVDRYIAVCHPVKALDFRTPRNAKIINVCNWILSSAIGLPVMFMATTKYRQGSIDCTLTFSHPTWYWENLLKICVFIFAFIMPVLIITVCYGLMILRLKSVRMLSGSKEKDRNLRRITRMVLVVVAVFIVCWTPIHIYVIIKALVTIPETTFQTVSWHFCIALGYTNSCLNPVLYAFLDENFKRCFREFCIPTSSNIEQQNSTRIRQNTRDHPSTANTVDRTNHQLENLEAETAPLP
# UniProt P41143, whole entry, looked up: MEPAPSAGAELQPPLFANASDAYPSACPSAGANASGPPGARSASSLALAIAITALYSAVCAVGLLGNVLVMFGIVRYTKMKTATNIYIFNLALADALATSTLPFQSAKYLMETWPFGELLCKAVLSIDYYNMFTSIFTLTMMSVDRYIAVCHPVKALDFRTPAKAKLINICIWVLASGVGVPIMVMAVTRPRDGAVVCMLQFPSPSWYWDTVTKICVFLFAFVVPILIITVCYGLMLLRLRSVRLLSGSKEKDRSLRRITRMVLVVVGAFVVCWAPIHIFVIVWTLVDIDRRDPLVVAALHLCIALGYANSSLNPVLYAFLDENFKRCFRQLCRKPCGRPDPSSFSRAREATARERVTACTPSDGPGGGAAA
# Molecular target: Mu-type opioid receptor (Homo sapiens) + Delta-type opioid receptor (Homo sapiens) (UniProt P35372+P41143)
# Test: inducers of mu-delta opioid receptor heterodimers – cell-based, luminescence, primary screen (AID 504326);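 also: 0% = vehicle-treated cells and 100% = reference agonist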
# Conditions: cells, OPRM1-OPRD1 heterodimerization, at 9.3 µM, hits give high values
row,SMILES,activation
1,c1ccc2c(c1)nc1n2CCN1,inactive: -2.46%
2,Cc1ccc2c(c1)C1CN(C)CCC1N2C(=S)Nc1ccc(OC(F)F)cc1 (stereo not drawn),inactive: -0.63%
3,CC(=O)Nc1nc2ccccc2n1CCN(C)C,inactive: -2.16%
4,CC(C)[C@H](NC(=O)N1CCn2c1nc1ccccc12)C(=O)N[C@@H](C(=O)O)c1ccccc1,inactive: -2.61%
5,O=C(Cn1cnc2c(NCc3ccccc3)ncnc21)NCC1CCCO1 (stereo not drawn),inactive: -2.38%
6,O=C(Cn1cnc2c(NCc3ccccc3)ncnc21)NCc1ccccn1,inactive: -2.87%
7,CC1CCC2C(=O)N(c3ccc(NC4CCN(Cc5ccccc5)CC4)c([N+](=O)[O-])c3)C(=O)C2C1 (stereo not drawn),inactive: 0.82%
8,CCCC(=O)Nc1nnc(/C=C/c2ccc(OC)cc2)s1,inactive: -1.81%
9,CC(=O)Nc1ccc2c(c1)nc1n2CCN(C2CCCCC2)C1,inactive: -1.55%
10,CCN(CC)CCn1c(NC(=O)c2ccc(Cl)cc2)nc2ccccc21,inactive: 5.27%
11,Cn1c(=O)n(CC(N)=O)c2ccccc21,inactive: -0.96%
12,COc1cc(C2NCCC3(OCCO3)C2(C)C)cc(OC)c1OC (stereo not drawn),inactive: 0.57%
13,O=C(Cn1c(-c2ccccn2)nc2ccccc21)N/N=C/c1ccccn1,inactive: 2.07%
14,O=C(CCCCCNC(=O)N1CCn2c1nc1ccccc12)NCc1ccccc1Cl,inactive: -2.93%
15,O=C(Cn1c(NCCO)nc2ccccc21)NCC1CCCO1 (stereo not drawn),inactive: -0.85%
16,Cc1ccc2c(c1)C1CN(C)CCC1N2S(=O)(=O)c1cc(C(F)(F)F)ccc1Cl (stereo not drawn),inactive: 0.98%
17,O=C(Cn1c(S(=O)(=O)Cc2ccccc2)nc2ccccc21)N1CCCCC1,inactive: -0.02%
18,COCCN1CCn2c(nc3cc(NC(=O)c4cccs4)ccc32)C1,inactive: -0.36%
19,COc1cccc(CNc2nc3ccccc3n2CCN2CCCCC2)c1,inactive: -0.08%
20,O=C(Nc1ccccc1)N1CCn2c(nc3ccccc32)C1,inactive: -2.15%
21,O=C(Nc1ccc2c(c1)nc1n2CCN(C2CCCCC2)C1)c1ccco1,inactive: 1.26%
22,O=C(CSc1nc2ccccc2n1CC(=O)N1CCCC1)Nc1ccc2c(c1)OCO2,inactive: 1.14%
23,CCOC(=O)CC[C@H](NC(=O)Cn1cnc2c(OCc3ccccc3)ncnc21)C(=O)OCC,inactive: -1.99%
24,COc1ccc(CNC(=O)[C@H](C)NC(=O)N2CCn3c2nc2ccccc23)cc1,inactive: -2.36%

row,SMILES,activation
1,COc1cccc(CNC(=O)[C@H](CC(C)C)NC(=O)N2CCn3c2nc2ccccc23)c1,inactive: -0.05%
2,CCOP(=O)(Nc1cccc2ccccc12)OCC,inactive: 0.35%
3,CCN(CC)CCCNC(=S)N1CCn2c(nc3ccccc32)C1,inactive: -2.54%
4,CCCOP(=S)(Nc1nc(N)cc(=O)[nH]1)OCCC,inactive: -1.12%
5,O=C(CSc1nc2ccccc2n1CC(=O)N1CCOCC1)N1CCCC1,inactive: -2.67%
6,CSCC[C@H](NC(=O)N1CCn2c1nc1ccccc12)C(=O)N1CCCCC1,inactive: -2.72%
7,Cn1c(=O)n(CCc2ccccc2)c(=O)c2c1nc1n2CCN1Cc1ccco1,inactive: -3.27%
8,C[C@H](NC(=O)N1CCn2c1nc1ccccc12)C(=O)NCc1ccc(F)cc1,inactive: -2.02%
9,Cc1ccc2c(c1)C1CN(C)CCC1N2C(=O)c1ccccc1NS(=O)(=O)c1cccc(C(F)(F)F)c1 (stereo not drawn),inactive: 1.26%
10,Oc1ccc(CC2(N3CCCC3)CCCCC2)cc1,inactive: 0.33%
11,O=C(Nc1nc2ccccc2n1CCN1CCOCC1)c1ccccc1,inactive: -3.55%
12,NNC(=O)Cn1cnc2ccccc21,inactive: 1.09%
13,O=C(Cn1c(C(F)(F)F)nc2ccccc21)Nc1ccccc1N1CCOCC1,inactive: 0.87%
14,COc1ccc(CNC(=O)Cn2cnc3c(OCc4ccccc4)ncnc32)cc1,inactive: -1.41%
15,Nc1cccc2c([As](=O)(O)O)cccc12,inactive: 0.69%
16,O=C(Cn1c(CO)nc2ccccc21)NCCc1ccccc1,inactive: -1.4%
17,Cc1ccc(NCCc2c([N+](=O)[O-])cc([N+](=O)[O-])cc2[N+](=O)[O-])cc1,inactive: 6.46%
18,CC(C(=O)Nc1ccccc1C(=O)O)n1c(C(F)(F)F)nc2ccccc21 (stereo not drawn),inactive: -1.85%
19,Cn1c(=O)c2ncn(CC(=O)NCCOc3ccccc3)c2n(C)c1=O,inactive: -2.68%
20,CC(C)(C)NC(=O)Cn1c(-c2nonc2N)nc2ccccc21,inactive: -2.36%
21,O=[N+]([O-])c1ccc2c(c1)nc1n2CCN(C2CCCCC2)C1,inactive: -1.52%
22,COC(=O)Cn1c(=N)n(CCN2CCCCC2)c2ccccc21,inactive: -3.26%
23,CCc1ccc(NC(=O)Cn2c3[n+](c4c(F)c(F)ccc42)CCCCC3)cc1,inactive: -2.7%
24,Cc1cccc(OCC(=O)OC2CN3CCC2CC3)c1 (stereo not drawn),inactive: -1.59%

row,SMILES,activation
1,CCN(CC)CCn1cnc2c1c(=O)n(CCOC(=O)c1cc(OC)c(OC)c(OC)c1)c(=O)n2C,inactive: -2.63%
2,O=C(Cn1cnc2ccccc21)Nc1cccc(S(=O)(=O)N2CCCC2)c1,inactive: -1.27%
3,C=CCOC(=O)C1=C(C)N=C2SCCC(=O)N2C1/C=C/c1ccccc1 (stereo not drawn),inactive: -0.7%
4,Cn1c(=O)c2c(ncn2CCN(CCO)Cc2ccccc2)n(C)c1=O,inactive: -1.82%
5,O=[As](O)(c1cccc(O)c1)c1cccc(O)c1,inactive: -1.93%
6,COc1ccc(CNc2nc3ccccc3n2CCN2CCOCC2)cc1,inactive: -2.13%
7,N#CCC(=O)N1CCn2c1nc1ccccc12,inactive: -3.11%
8,O=C(Cn1c(CO)nc2ccccc21)NC1CCCCCC1,inactive: -3.1%
9,CCN(CC)CCn1c(NCc2cc(OC)ccc2OC)nc2ccccc21,inactive: -2.46%
10,CCOC(=O)CSc1nc2ccccc2n1CC(=O)NC(C)(C)C,inactive: -2.25%
11,CCOC(=O)C1=C(C)N=C2SCCC(=O)N2[C@@H]1/C=C/c1ccccc1,inactive: 7.02%
12,COC(=O)[C@H](CC(C)C)NC(=O)Cn1cnc2c(OCc3ccccc3)ncnc21,inactive: -0.09%
13,COc1ccc(-c2csc(NCCn3c(C)nc4cc(C(F)(F)F)ccc43)n2)cc1,inactive: -1.05%
14,O=C(Cn1c(-c2cncs2)nc2ccccc21)NC1CCCC1,inactive: -3.1%
15,O=[As](O)(O)c1cccnc1,inactive: -1.89%
16,Cn1c(=O)c2c(ncn2CC(=O)N2CCCCCC2)n(C)c1=O,inactive: -1.42%
17,O=C(Cn1cnc2ccccc21)N/N=C/c1cccnc1,inactive: -2.71%
18,CN(C)C(=O)Cn1c(=O)n(C)c2ccccc21,inactive: -0.75%
19,CC(C)C(NS(=O)(=O)c1cccc2nsnc12)C(=O)N1CCn2c1nc1ccccc12 (stereo not drawn),inactive: -3.28%
20,CCC(C)N(C(=O)Cn1cnc2c1c(=O)n(C)c(=O)n2C)C1CCS(=O)(=O)C1 (stereo not drawn),inactive: -0.11%
21,Cc1nc2cc(C(F)(F)F)ccc2n1CCNc1nc(-c2ccc([N+](=O)[O-])c(Cl)c2)cs1,inactive: 4.79%
22,OCCNc1nc2ccccc2n1CCN1CCCCC1,inactive: -4.27%
23,Cc1nc2ccccc2n1CC(=O)NCCN1CCOCC1,inactive: -1.64%
24,C(=N\c1nc2ccccc2n1CCN1CCOCC1)/c1cccs1,inactive: -0.85%

row,SMILES,activation
1,COCCCNC(=O)Cn1cnc2c(NCc3ccccc3)ncnc21,inactive: -1.98%
2,Cn1c(=O)c2c(ncn2CC(=O)Nc2cccc(S(=O)(=O)Nc3ccccc3F)c2)n(C)c1=O,inactive: -3.18%
3,CS(=O)(=O)c1ccc(Cl)c(NC(=O)COC(=O)C(O)(c2ccccc2)c2ccccc2)c1,inactive: -0.41%
4,CN1CCN(C(=O)Cn2c(C(F)(F)F)nc3ccccc32)CC1,inactive: -0.23%
5,c1ccc(Cn2c(CNc3nc4ccccc4n3CCN3CCCCC3)nc3ccccc32)cc1,inactive: 7.69%
6,O=C(OC1CN2CCC1CC2)c1ccc(Cl)cc1 (stereo not drawn),inactive: -1.56%
7,O=C(c1ccccc1)N1CCn2c1nc1ccccc12,inactive: -2.18%
8,Cn1cccc1/C=N/NC(=O)Cn1cnc2ccccc21,inactive: -1.95%
9,CC(C(=O)N1CCc2ccccc21)n1cnc2c1c(=O)n(C)c(=O)n2C (stereo not drawn),inactive: 2.24%
10,C[C@H](NC(=O)N1CCn2c1nc1ccccc12)C(=O)NCC1CCCO1 (stereo partly drawn),inactive: -3.38%
11,CCC(=O)Nc1ccc(NC(=S)NC(=O)/C=C/c2ccco2)cc1,inactive: -2.43%
12,CCN(CC)CCn1cnc2c1c(=O)[nH]c(=O)n2Cc1ccccc1,inactive: -1.72%
13,Cc1ccc(S(=O)(=O)c2nnn3c2nc(NC2CCN(Cc4ccccc4)CC2)c2ccccc23)cc1C,active: 22.8%
14,CN1CCC(N(C)c2nc(-c3ccccc3)nc3ccccc23)CC1,inactive: 6.7%
15,CC1CN(C(=O)Cn2c(C(F)(F)F)nc3ccccc32)CC(C)O1 (stereo not drawn),inactive: 0.98%
16,O=C(CCCCCNC(=O)N1CCn2c1nc1ccccc12)N[C@H](Cc1ccccc1)C(=O)O,inactive: -3.27%
17,CC(CNC(=O)Cn1cnc2c(OCc3ccccc3)ncnc21)c1ccccc1 (stereo not drawn),inactive: -3.49%
18,CC(C)CN(C(=O)Cn1c(C(F)(F)F)nc2ccccc21)c1c(N)n(Cc2ccccc2)c(=O)[nH]c1=O,inactive: -1.14%
19,COCCN(C(=O)Cn1c(C(F)(F)F)nc2ccccc21)c1c(N)n(Cc2ccccc2)c(=O)[nH]c1=O,inactive: -0.4%
20,Brc1ccc(/C=N/c2nc3ccccc3n2CCN2CCOCC2)cc1,inactive: -0.71%
21,c1coc(CNc2nc3ccccc3n2CCN2CCOCC2)c1,inactive: 0.62%

# From PubChem BioAssay AID504326 (The Scripps Research Institute Molecular Screening Center, 2011)
